Values quoted from earlier work as cited in paper PMC12640828, “A novel bioactive peptide-peptoid hybrid of alpha-calcitonin gene-related peptide protects against pressure-overload induced heart failure” (Frontiers in Pharmacology, 2025).

Conditions: cited from earlier work
Excerpt: Alpha-calcitonin gene-related peptide (α-CGRP) is a 37-amino acid regulatory neuropeptide and a potent vasodilator having positive chronotropic and inotropic effects ([Brain et al., 1985]; [Russell et al., 2014]; [Kumar et al., 2019a]). Pharmacological studies established a cardioprotective role for α-CGRP in normal cardiovascular function and in a number of heart and vascular diseases, including heart failure (HF) ([Russell et al., 2014]; [Kumar et al., 2019a]).

Substance: Alpha-calcitonin gene-related peptide [α-CGRP]
- Rapid degradation time in circulation (in circulation, ref MaassenVanDenBrink et al., 2016): ~5 min
- Half-life (native peptide, rapid biodegradation, no reference given): approximately 5 min
